Laboratory results from patent US6949522B2, “β-2′- or 3′-halonucleosides” (Pharmasset, Inc., priority 2001, dated 2005).

System: HepG2
Test: Toxicity assay (MTS/MTT dye), HepG2 cells
Conditions: HepG2, three day-incubation (Table 1)
Description: After a three day-incubation for HepG2, or 5 days for human PBM cells, cell viability and mitochondrial activity were measured in a colorimetric assay using the MTS- or MTT dye method (Promega, Madison, Wis.).

NC(=O)c1ncn([C@@H]2O[C@H](CO)[C@@H](O)[C@H]2O)n1 [Ribavirin, 1-β-D-ribofuranosyl-1H-,1,2,4-triazole-3-carboxamide, reference compound]
Cytotoxicity HepG2 IC30: 90 µM
